Source: patent US20260216238A1, “TETRATHIOMOLYBDIC ACID FOR USE IN TREATING COPPER METABOLISM-ASSOCIATED DISEASES OR DISORDERS (WILSON DISEASE)” (Alexion Pharmaceuticals, Inc., priority 2023, published 2026)

Test system: patients with Wilson disease (WD)
Details: in vivo

Substance: bis-choline tetrathiomolybdate [TTM]
- Anemia, E: 7
- Anemia, N (%): 6 (4.4)
- Leukopenia, E: 3
- Leukopenia, N (%): 2 (1.5)
- Neutropenia, E: 6
- Neutropenia, N (%): 6 (4.4)
- Neutrophil count decreased, E: 4
- Neutrophil count decreased, N (%): 2 (1.5)
- Thrombocytopenia, E: 2
- Thrombocytopenia, N (%): 1 (0.7)
- participants with Grade 1 hemoglobin: 41.6%
- participants with Grade 1 platelets: 24.1%
- participants with Grade 3 neutrophils: 6.6%
